We go through six compounds from US8536354B2, “Steroidal ligands and their use in gene switch modulation” (Intrexon Corporation, priority 2008, dated 2013).

The chains behind the UniProt entries cited, without tags or fusion partners. Where a name states a change or a piece, a line headed by the entry shows the natural chain unless it says otherwise.
UniProt O77240: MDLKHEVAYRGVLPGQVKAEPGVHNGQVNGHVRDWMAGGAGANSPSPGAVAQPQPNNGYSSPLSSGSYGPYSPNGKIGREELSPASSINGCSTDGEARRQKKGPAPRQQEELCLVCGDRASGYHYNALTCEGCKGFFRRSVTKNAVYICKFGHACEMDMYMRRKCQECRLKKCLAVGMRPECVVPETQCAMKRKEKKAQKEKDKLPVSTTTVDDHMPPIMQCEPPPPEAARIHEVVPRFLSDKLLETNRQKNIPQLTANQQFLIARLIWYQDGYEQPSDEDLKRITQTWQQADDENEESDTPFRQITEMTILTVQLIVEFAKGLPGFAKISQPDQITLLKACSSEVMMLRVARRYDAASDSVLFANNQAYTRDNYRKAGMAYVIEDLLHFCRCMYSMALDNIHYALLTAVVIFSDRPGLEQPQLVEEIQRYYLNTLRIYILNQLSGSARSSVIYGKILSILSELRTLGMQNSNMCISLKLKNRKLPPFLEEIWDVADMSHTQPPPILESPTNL

The assay deals with substitution mutant CfEcR ligand binding domain (Choristoneura fumiferana, UniProt O77240). Conditions: CfEcR N119F/V96T double mutant; for rel max FI (20E), CF-N119F/V96T: max fold induction at any concentration relative to 20E; for rel max FI (PoA), CF-N119F/V96T: max fold induction at any concentration relative to PoA; for EC50: read-out: EC50 (μM), CF-N119F/V96T, NIH3T3 cells, luciferase, 48 h, ligand 0.01-33 μM.

For `COC1C[C@H]2C(=O)C=C3[C@H](CC[C@]4(C)[C@@H]([C@@](C)(O)C(CCC(C)(C)O)OC)CC[C@@]34OC)[C@@]2(C)CC1OC` (stereo partly drawn) [20E-2,3,14,22-tetramethyl ether], the “rel max FI (20E), CF-N119F/V96T” value amounted to 0.00; the “rel max FI (PoA), CF-N119F/V96T” value is on record as 0.00; the EC50 was > 33 µM.
Turning to `CO[C@H]1C[C@@]2(C)[C@@H](C[C@H]1O)C(=O)C=C1[C@@H]2CC[C@]2(C)[C@@H]([C@@](C)(O)[C@@H](CCC(C)(C)O)OC)CC[C@@]12O` [20E-2,22-dimethyl ether], the “rel max FI (20E), CF-N119F/V96T” value came to 0.01; the “rel max FI (PoA), CF-N119F/V96T” value is on record as 0.00; the EC50 is > 33 µM.
The like results for `CO[C@H]1C[C@@]2(C)[C@@H](C[C@H]1O)C(=O)C=C1[C@@H]2CC[C@]2(C)[C@@H]([C@@](C)(O)[C@H](O)CCC(C)(C)O)CC[C@@]12O` [20E-2-methyl ether] were, in that order, 0.02, 0.00 and > 33 µM.
As to `CO[C@@H]1C[C@H]2C(=O)C=C3[C@H](CC[C@]4(C)[C@@H]([C@@](C)(O)[C@@H](CCC(C)(C)O)OC)CC[C@@]34O)[C@@]2(C)C[C@@H]1O` [20E-3,22-dimethyl ether], the “rel max FI (20E), CF-N119F/V96T” value was found to be 0.27; the “rel max FI (PoA), CF-N119F/V96T” value is given as 0.06; the EC50 was > 20 µM.
The like results for `CO[C@@H]1C[C@H]2C(=O)C=C3[C@H](CC[C@]4(C)[C@@H]([C@@](C)(O)[C@H](O)CCC(C)(C)O)CC[C@@]34O)[C@@]2(C)C[C@@H]1O` [20E-3-methyl ether] were, in that order, 1.54, 0.35 and ~10 µM.
Regarding `CO[C@H](CCC(C)(C)O)[C@](C)(O)C1CC[C@@]2(O)C3=CC(=O)C4C[C@@H](O)[C@@H](O)CC4(C)C3CCC12C` (stereo partly drawn) [20E-22-methyl ether], the “rel max FI (20E), CF-N119F/V96T” value is on record as 0.53; the “rel max FI (PoA), CF-N119F/V96T” value stood at 0.12; the EC50 is ~12 µM.
